For one molecule, Kd results are on record in paper PMC4538829.

Protein sequences, listed by entry. Tags and fused reporters are not part of them.
UniProt P22392, whole entry D54A: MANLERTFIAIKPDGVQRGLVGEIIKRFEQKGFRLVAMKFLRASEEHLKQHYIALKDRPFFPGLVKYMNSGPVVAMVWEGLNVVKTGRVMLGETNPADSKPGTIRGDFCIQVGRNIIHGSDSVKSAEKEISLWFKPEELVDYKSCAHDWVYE
UniProt P22392, whole entry: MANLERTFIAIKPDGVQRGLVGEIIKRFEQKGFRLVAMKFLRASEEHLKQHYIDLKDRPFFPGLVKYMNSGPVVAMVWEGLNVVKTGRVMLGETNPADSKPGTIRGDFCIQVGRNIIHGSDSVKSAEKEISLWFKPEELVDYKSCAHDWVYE
UniProt P22392, whole entry H118F: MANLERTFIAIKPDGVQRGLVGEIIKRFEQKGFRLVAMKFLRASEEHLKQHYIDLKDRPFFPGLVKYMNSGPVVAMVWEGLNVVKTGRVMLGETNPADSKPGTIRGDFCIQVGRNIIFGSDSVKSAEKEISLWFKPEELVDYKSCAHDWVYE

Targets include NM23-H2 D54A (UniProt P22392 1-152, D54A); NM23-H2 wild-type (UniProt P22392 1-152); NM23-H2 H118F (UniProt P22392 1-152, H118F).
Holding throughout (test): MST

Turning to TGGGGAGGGTGGGGAGGGTGGGGAAGG (ssDNA) [c-MYC Pu27 (FAM)], the Kd came out at 7800 ± 630 nM with NM23-H2 D54A, 140 ± 10 nM with NM23-H2 wild-type and 700 ± 29 nM with NM23-H2 H118F.
